# Test system: postoperative pain, subjects for an open elective abdominoplasty
# Experiment: Example 2: IV infusion started before anesthesia induction vs placebo, open elective abdominoplasty
# Assay type: in vivo, human
# Conditions: FIG. 11
smiles,measurement,value
"CCCCOc1c(OC)cc(C(=O)NCC2(N(C)C)CCOCC2)cc1OC [VVZ-149, 4-butoxy-N-((4-(dimethylamino)tetrahydro-2H-pyran-4-yl)methyl)-3,5-dimethoxybenzamide]",amount of intraoperative fentanyl used during surgery vs placebo,less amount of intraoperative fentanyl
